Activation data for 26 molecules are collected here from PubChem BioAssay AID652067 (The Scripps Research Institute Molecular Screening Center, 2013).

This is a selection; strong and weak results do not stand in their true shares. Some tests of the compounds listed are not included; inactive here does not mean inactive elsewhere. Active and inactive are the calls of the source.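 Rule for the calls: active = activation above the mean of all tested compounds plus 3 SD (cut at about 5.5% in these data); inactive = the rest.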

This test has as its system DAF-12 nuclear receptor (Haemonchus contortus). Description: hcDAF-12 driven luciferase reporter activation – cell-based, luminescence, HEK293, lit1-tk-luc reporter, primary screen (AID 652067).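 Note: 100% = response to 3 µM Δ7-dafachronic acid high control.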 The note with it: HEK293 hcDAF-12 lit1-tk-luc reporter, at 6.8 µM, hits give high values, 0% DMSO, 100% Δ7-dafachronic acid.
Regarding `CN(C)C1(CNC(=O)c2ccc(Br)cc2)CCCCC1`, the activation is inactive: -0.15%.
The figure for `COc1cc(C(=O)NCC2(N(C)C)CCCCC2)c([N+](=O)[O-])cc1OC` is inactive: 1.14%.
Then `COc1ccc(Cl)cc1C(=O)NCC1(N(C)C)CCCCC1`, with inactive: -1.79%.
Regarding `COc1cccc(C(=O)NCC2(N3CCCCC3)CCCCC2)c1`, the activation is inactive: 0.4%.
The figure for `O=C(NCC1(N2CCCCC2)CCCCC1)c1cccc(Cl)c1` is inactive: -0.07%; for `O=C(OC1CN2CCC1CC2)C(CO)(c1ccccc1)c1ccccc1` (stereo unspecified) it is inactive: 0.17%.
Consider `COc1ccc(Br)c(C(=O)NCC2(N3CCCCC3)CCCCC2)c1`, for which the activation was inactive: -0.87%.
With `C=C(C)C#CC(O)(C(=O)OC1CCN(C)CC1)c1ccccc1` (stereo unspecified), the activation was inactive: -0.46%.
As for `CN(C)c1cccc(C(=O)NCC2(N(C)C)CCCCC2)c1`, the activation was inactive: -0.69%.
Take `O=C(OCCN1CCCC1)C(O)(c1ccccc1)c1ccccc1`: the activation was inactive: -2.22%.
Then `CC(C)Oc1ccc(C(=O)NCC2(N(C)C)CCCCC2)cc1`, with inactive: -2.66%; and `O=C(NCC1(N2CCCCC2)CCCCC1)c1cc([N+](=O)[O-])ccc1Cl`, with inactive: -0.27%; and `CN1[C@@H]2CC[C@H]1CC(OC(=O)C(O)(c1ccccc1)c1ccccc1)C2` (stereo partly specified), with inactive: -1.36%.
Then `CC(C)N1C(=O)CC2(CCN(CCOC(=O)C(O)(c3ccccc3)c3ccccc3)CC2)C1=O`, with inactive: 0.82%; and `COc1cc(SC)ccc1C(=O)NCC1(N(C)C)CCCCC1`, with inactive: -0.38%.
On to `CCN(CC)CC(C)C(C)OC(=O)C(O)(c1ccccc1)c1ccccc1` (stereo unspecified), for which the activation is inactive: 0.61%.
As for `Cc1ccc(C(=O)NCC2(N3CCCCC3)CCCCC2)cc1`, the activation was inactive: 3.46%.
Then `CN(C)C1CCCC1OC(=O)C(O)(c1ccccc1)c1ccccc1` (stereo unspecified), with inactive: -0.93%; and `CN(C)c1ccc(C(=O)NCC2(N(C)C)CCCCC2)cc1`, with inactive: -0.32%.
Then `Cc1ccccc1C(=O)NCC1(N2CCCCC2)CCCCC1`, with inactive: -0.65%; and `O=C(NCC1(N2CCCCC2)CCCCC1)c1cc(F)c(F)cc1Cl`, with inactive: -0.38%.
The figure for `C=CCN1CCN(CCOC(=O)C(O)(c2ccccc2)c2ccccc2)CC1` is inactive: -1.75%; for `O=C(NCC1(N2CCCCC2)CCCCC1)c1cccc(Br)c1` it is inactive: 2.52%; for `Cc1cc(C(=O)NCC2(N3CCCCC3)CCCCC2)ccc1[N+](=O)[O-]` it is inactive: -0.91%.
On to `CCN1CCCC(OC(=O)C2(O)c3ccccc3C=Cc3ccccc32)C1` (stereo unspecified), for which the activation was inactive: -0.96%.
The figure for `COc1ccc(C(=O)NCC2(N(C)C)CCCCC2)cc1` is inactive: -0.77%.
